The target of the assay is prostasin (recombinant human, soluble, active two-chain form purified from conditioned medium of CHO cells transfected with full-length prostasin) (human) (UniProt Q16651). The experiment in a line: cell-based or functional assay.

In the case of aprotinin (from UniProt P00974 36-93), the IC50, inhibition of prostasin amidolytic activity towards S2765 is 1.2 nM.

Values taken from patent US20060210570A1.
